Patent publication US8916204B2, “SPARC and methods of use thereof” (Abraxis BioScience, LLC, priority 2004, dated 2014)

Biological target: T1, SPARC (Homo sapiens, UniProt P09486)
T1 sequence (P09486 18-303): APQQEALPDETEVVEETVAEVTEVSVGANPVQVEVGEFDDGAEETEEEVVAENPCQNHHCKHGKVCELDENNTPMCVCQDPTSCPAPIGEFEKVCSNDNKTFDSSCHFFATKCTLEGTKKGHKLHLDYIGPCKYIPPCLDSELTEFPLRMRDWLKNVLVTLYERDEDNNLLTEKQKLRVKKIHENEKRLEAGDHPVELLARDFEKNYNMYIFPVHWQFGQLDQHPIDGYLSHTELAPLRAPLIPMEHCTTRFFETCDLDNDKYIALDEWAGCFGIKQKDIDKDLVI
Experiment: binding of fluorescent-tagged albumin to filter immobilized SPARC
Conditions: Alexa 488 labeled albumin; as HSA concentration
Procedure: Purified SPARC was immobilized onto PVDF membrane and reacted with increasing concentration of Human Serum Albumin/Bovine Serum Albumin (HSA/BSA) which has been Alexa 488 fluorochrome labeled.
Specifically the following protocol is used: • 1) Incubate membrane with 30% methanol for 5 min, using Sterile MultiScreen (HTS) 96-well Filtration system from Millipore (Cat. No.: MSIPS4510); • 2) Wash twice with Hanks Balance Salt Solution (HSBS); • 3) Incubate with 100 μl of 5 μg/100 μl solution of purified SPARC in HSBS; • 4) After 1 hour at 25° C., wash off twice with HSBS; • 5) Block with 5% milk overnight (5% Non-fat dry milk (Carnation) in 1×TBS) at 4° C.; • 6) Wash twice with HSBS; • 7) Incubate with albumin (resuspend 5 mg of BSA-Alexa fluor 488 (Molecular Probes) with 1 ml of HSA injection 25%, BAXTER); • 8) After 1 hour, wash three times with HSBS; • 9) Read with a fluorometer using detection wavelength for Alexa fluor 488; • 10) Specific binding is total binding minus binding to membrane without SPARC; and • 11) Plot specific binding versus HSA concentration (%).

HSA: Human Serum Albumin/Bovine Serum Albumin, Alexa 488 fluorochrome labeled
IC50 of binding to immobilized SPARC: ~5 % (weight/volume)
